# Measured values published in patent US20260216354A1, “ANTI-CMET ANTIBODY, ANTIBODY-DRUG CONJUGATE, AND PREPARATION METHOD THEREFOR AND USE THEREOF” (MEDILINK THERAPEUTICS (SUZHOU) CO., LTD., priority 2022, published 2026).
# T1: h.cMet-ECD-His (Homo sapiens, UniProt P08581)
# T1 construct: a human cMet ectodomain recombinant protein (Human HGF R/c-MET Protein, His Tag); purchased Acrobiosystems Co., Ltd. / ACRO Biosystems MET-H5227
# T1 sequence (P08581 25-932 limits assumed): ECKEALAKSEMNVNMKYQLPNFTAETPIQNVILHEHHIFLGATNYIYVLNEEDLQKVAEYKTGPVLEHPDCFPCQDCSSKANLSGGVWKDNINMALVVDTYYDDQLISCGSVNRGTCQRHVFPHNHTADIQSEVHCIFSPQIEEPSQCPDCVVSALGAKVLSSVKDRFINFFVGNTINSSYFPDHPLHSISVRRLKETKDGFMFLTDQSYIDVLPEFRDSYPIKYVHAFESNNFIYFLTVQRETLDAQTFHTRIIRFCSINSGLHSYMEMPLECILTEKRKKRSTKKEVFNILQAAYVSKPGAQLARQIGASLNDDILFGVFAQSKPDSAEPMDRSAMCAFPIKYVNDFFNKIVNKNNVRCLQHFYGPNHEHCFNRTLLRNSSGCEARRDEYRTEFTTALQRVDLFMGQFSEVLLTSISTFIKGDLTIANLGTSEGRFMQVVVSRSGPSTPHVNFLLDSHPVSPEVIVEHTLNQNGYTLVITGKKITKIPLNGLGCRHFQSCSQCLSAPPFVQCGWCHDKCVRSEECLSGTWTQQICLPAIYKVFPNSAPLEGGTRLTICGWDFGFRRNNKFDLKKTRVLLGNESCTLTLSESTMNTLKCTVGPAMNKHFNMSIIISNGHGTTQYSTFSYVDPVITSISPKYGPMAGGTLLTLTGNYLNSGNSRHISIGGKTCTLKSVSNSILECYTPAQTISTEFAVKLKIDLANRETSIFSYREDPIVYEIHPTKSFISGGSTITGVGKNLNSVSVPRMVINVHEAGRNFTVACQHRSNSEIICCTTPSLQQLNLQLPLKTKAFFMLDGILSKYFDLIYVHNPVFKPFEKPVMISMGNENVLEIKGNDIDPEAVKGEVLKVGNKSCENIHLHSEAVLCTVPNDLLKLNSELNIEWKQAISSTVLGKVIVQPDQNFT
# T2: cMet (Homo sapiens, UniProt P08581)
# T2 construct: MKN45 cells expressing c-MET antigens; endogenous in cells; host or cells: MKN45
# T2 sequence (P08581 25-1390): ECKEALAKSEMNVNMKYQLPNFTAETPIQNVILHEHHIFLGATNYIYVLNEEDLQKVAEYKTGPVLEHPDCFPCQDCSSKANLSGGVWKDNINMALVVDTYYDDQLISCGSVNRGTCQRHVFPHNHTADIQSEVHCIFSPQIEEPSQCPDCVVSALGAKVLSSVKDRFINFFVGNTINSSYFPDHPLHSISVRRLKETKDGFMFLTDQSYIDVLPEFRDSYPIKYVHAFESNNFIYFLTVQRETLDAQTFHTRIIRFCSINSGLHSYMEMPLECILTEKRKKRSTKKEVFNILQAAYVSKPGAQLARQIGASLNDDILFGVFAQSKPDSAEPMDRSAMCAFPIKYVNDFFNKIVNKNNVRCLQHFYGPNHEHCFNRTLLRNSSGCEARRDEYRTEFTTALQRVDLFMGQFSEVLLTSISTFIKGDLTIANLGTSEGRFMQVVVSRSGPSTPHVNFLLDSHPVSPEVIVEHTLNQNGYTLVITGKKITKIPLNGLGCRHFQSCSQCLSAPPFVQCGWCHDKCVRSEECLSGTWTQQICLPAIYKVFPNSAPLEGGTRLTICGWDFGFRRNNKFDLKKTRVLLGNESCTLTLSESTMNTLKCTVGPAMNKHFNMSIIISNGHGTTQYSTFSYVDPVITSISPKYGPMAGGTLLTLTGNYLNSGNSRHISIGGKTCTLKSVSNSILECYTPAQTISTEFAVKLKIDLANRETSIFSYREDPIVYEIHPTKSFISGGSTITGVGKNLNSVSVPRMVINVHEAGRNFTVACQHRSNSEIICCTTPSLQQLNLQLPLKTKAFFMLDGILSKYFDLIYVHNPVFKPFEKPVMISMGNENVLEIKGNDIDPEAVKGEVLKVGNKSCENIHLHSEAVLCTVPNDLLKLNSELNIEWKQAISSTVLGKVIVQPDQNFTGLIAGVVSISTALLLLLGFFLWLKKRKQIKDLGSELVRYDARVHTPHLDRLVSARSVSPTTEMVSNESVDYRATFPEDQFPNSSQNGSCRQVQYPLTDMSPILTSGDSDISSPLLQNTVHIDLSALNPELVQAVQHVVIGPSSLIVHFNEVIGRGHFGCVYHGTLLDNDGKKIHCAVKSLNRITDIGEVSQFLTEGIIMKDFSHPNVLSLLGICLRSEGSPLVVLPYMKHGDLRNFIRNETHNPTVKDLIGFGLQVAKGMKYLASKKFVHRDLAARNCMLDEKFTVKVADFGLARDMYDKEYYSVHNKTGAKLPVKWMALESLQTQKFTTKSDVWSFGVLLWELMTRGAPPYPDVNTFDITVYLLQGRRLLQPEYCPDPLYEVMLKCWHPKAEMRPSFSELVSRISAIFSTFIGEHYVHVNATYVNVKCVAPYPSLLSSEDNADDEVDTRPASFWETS
# T3: h.cMet (cMet-ECD-his) (Homo sapiens, UniProt P08581)
# T3 construct: a human cMet ectodomain recombinant protein (Human HGF R/c-MET Protein, His Tag); purchased Acrobiosystems Co., Ltd. / ACRO Biosystems MET-H5227
# T3 sequence (P08581 25-932 limits assumed): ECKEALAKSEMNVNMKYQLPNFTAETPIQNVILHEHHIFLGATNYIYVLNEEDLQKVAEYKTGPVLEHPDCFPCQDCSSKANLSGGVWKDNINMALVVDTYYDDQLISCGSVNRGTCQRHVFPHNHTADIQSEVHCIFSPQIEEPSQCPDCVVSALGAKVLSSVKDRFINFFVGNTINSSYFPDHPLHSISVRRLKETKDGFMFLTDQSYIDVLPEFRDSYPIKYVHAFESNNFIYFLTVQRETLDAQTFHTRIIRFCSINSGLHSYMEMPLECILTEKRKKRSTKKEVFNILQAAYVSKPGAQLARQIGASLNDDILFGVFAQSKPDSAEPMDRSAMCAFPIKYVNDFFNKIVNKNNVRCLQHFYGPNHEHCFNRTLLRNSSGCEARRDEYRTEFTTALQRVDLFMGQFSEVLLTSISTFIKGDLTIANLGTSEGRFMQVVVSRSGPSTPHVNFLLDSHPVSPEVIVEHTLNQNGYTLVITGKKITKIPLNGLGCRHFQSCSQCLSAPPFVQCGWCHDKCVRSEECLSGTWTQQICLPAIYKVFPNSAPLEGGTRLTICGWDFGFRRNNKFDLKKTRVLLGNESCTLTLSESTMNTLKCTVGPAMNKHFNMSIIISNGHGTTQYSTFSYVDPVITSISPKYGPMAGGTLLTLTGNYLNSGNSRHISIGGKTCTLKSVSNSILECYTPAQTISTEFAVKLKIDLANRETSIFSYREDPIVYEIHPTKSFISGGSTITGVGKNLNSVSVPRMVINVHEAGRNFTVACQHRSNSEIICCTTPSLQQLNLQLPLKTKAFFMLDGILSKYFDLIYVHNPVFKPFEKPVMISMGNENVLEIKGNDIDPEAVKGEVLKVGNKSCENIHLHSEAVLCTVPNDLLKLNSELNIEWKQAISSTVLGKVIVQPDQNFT
# Columns and labels:
# DSF Tm thermal stability = format: physicochemical
# h.cMet-ECD-His = target: T1, h.cMet-ECD-His; experiment: ForteBio dynamic affinity to h.cMet-ECD-His; format: binding; settings: ProA sensor
# [1] = HIC hydrophilicity and hydrophobicity detection; format: physicochemical; settings: retention on hydrophobic chromatographic column
# cMet = target: T2, cMet; experiment: cMet protein degradation in MKN-45 cells (Western blot); format: cell-based; settings: 20 μg/ml, 60 hours, MKN-45, vs isotype control IgG1, FIG. 5
# h.cMet (cMet-ECD-his) = target: T3, h.cMet (cMet-ECD-his); experiment: ELISA affinity of humanized antibodies to human cMet; format: binding; settings: cMet-ECD-his coated
# [2] = test system: HGF-induced ERK phosphorylation; experiment: Inhibition of HGF-induced ERK phosphorylation in MDA-MB-468 cells (Western blot); format: cell-based, human; settings: antibody 15 μg/ml, HGF 100 ng/ml, MDA-MB-468, FIG. 4
molecule,measurement,setting,value
"55A10G6-Hz: humanized anti-c-Met antibody, IgG1/Kappa; HC SEQ ID NO: 58, LC SEQ ID NO: 59 (antibody) heavy: QIQLVQSGAEVKKPGASVKVSCKASGYTFTDYYLNWVRQAPGQGLEWMGWIFPGSGNTKYSQKFQGRVTLTVDTSASTAYMELSSLRSEDTAVYYCAGGDYGGFTYWGQGTLVTVSSASTKGPSVFPLAPSSKSTSGGTAALGCLVKDYFPEPVTVSWNSGALTSGVHTFPAVLQSSGLYSLSSVVTVPSSSLGTQTYICNVNHKPSNTKVDKKV[human IgG1 Fc omitted here] light: DIQMTQSPSSLSASVGDRVTITCGASENIYGALNWYQQKPGKAPKLLIYGATNLAAGVPSRFSGSGSGRDFTLTISSLQPEDFATYYCQNVLSEPLTFGQGTKVEIKRTVAAPSVFIFPPSDEQLKSGTASVVCLLNNFYPREAKVQWKVDNALQSGNSQESVTEQDSKDSTYSLSSTLTLSKADYEKHKVYACEVTHQGLSSPVTKSFNRGEC",Tm (° C.),DSF Tm thermal stability,79.62 °C
same,kdis,h.cMet-ECD-His,6.06e-05 s⁻¹
same,HIC,[1],15.0 min
same,cMet degradation,cMet,significantly induce cMet degradation
same,h.cMet EC50,h.cMet (cMet-ECD-his),4.782 ng/mL
same,block of HGF-induced ERK phosphorylation,[2],completely block
